The list is not random: actives were taken first. Their share in the collection is about 2.2%.
Nrf2 block: Nrf2 pathway inhibition | hit rate 2.1% among 360,000 | AID 504444 | Potency, µM (top dose mostly 46 µM), actives largely listed as inhibitors | A549 ARE-Fluc reporter, luciferase luminescence, 18-24 h; note: nearly all actives have a fitted effect of over 60% in size
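A549 ARE_Fluc cells (5000/well, 5% FBS OPTI-MEM) pre-incubated 2 h, then treated with compounds 18-24 h at 37C/5% CO2 in concentration-response. CellTiter-Fluor viability read first; BugLite luciferase luminescence after 15 min at room temperature gives Nrf2 activity.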
Nrf2 activator: activators of Nrf2 (ARE) signaling | AREc32 ARE-luciferase reporter (MCF7-derived line), luminescence, 24 h | Potency, µM (titrated, usually from 46.1 µM), actives largely listed as activators | hit rate 0.31% among 410,000 | AID 624171; note: nearly all actives have a fitted effect of over 65% in size
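Steps: seed AREc32_Fluc cells (1000/well, 5% FBS OPTI-MEM); incubate overnight at 37 deg C; add 23 nL compound; incubate 24 hr; add Steady-Glo; hold 30 min RT; read luminescence.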
miR-21 FLuc: miR-21 reporter, rising signal. HeLa miR-21 FLuc reporter, luciferase, 48 h. Potency, µM (titrated, usually from 38.3 µM). 340,000 tested, under 10 active. AID 2288; active = well fitted rising curve with a large enough effect; inconclusive = small, poorly fitted or top-dose-only effect; inactive = no such curve, though single readings can be large or run the other way;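 also: miR-21 action dims this reporter so a rising signal means less miR-21 action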
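Using DMEM plus 10% FBS, HeLa miR-21-FLuc cells are incubated with test compounds (final up to about 40uM) for 48 hours; firefly luciferase signal is then imaged following reagent-mediated lysis.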
A549 tox: kills or reduces viability of A549 cells in Nrf2 counter-screen | Potency, µM (highest dose often 46 µM), most hits filed as inhibitors | A549 ARE-Fluc cells, CellTiter-Fluor viability, 18-24 h | AID 504648 | hit rate 0.16% among 390,000
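A549 ARE-Fluc cells in 5% FBS OPTI-MEM, 5000 cells/well, rested 2 h then exposed to compounds in concentration-response for 18-24 h at 37 °C. Viability by CellTiter-Fluor fluorescence (Ex 405/Em 525) after 30 min; luciferase luminescence (BugLite, 15 min, RT) read afterwards.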
B2AR arrestin: beta2AR (human) beta-arrestin recruitment activity. beta-arrestin recruitment to beta2AR, cell-based reporter. Potency, µM (highest dose often 46.1 µM), actives largely listed as activators. hit rate 0.02% among 330,000. AID 492947; note: nearly all actives have a fitted effect of over 65% in size
Each line names hits and unclear results; the compound was inactive in the other large screens. Unless noted, calls come from the whole dose curve; as a rule, active = well fitted curve in the direction sought with a large enough effect; inconclusive = small, poorly fitted or top-dose-only effect, or another doubt; inactive = no such curve, though single readings can be large; an effect the other way counts as inactive or inconclusive.

COc1ccc(OC)c(S(=O)(=O)N2Cc3ccccc3CC2C(=O)Nc2ccc(C(C)=O)cc2)c1 (stereo unspecified)	none (no result: B2AR arrestin)
COc1ccc(OCC(=O)Nc2cc(-c3nc4ccccc4o3)ccc2Cl)cc1	Nrf2 block inconclusive (no result: B2AR arrestin)
O=C(C[C@H]1C[C@H](C(=O)N2CCCCC2)[C@@]2(CCc3ccccc3)c3[nH]c4cc(-c5ccco5)ccc4c3CCN2C1=O)NCCN1CCOCC1	none (no result: miR-21 FLuc)
C[C@]12c3[nH]c4ccccc4c3CCN1C(=O)C(CC(=O)NCC13CC4CC(CC(C4)C1)C3)C[C@@H]2C(=O)N1CCCCC1 (stereo partly specified)	Nrf2 block 16µM (no result: miR-21 FLuc)
CC(C)N(C(=O)[C@H]1C[C@H](CC(=O)NCC23CC4CC(CC(C4)C2)C3)C(=O)N2CCc3c([nH]c4cc(-c5ccco5)ccc34)[C@]12C)C(C)C	Nrf2 block inconclusive (no result: miR-21 FLuc)
CC(C)=CCC/C(C)=C/CNC(=O)C[C@H]1C[C@H](C(=O)N2CCOCC2)[C@@]2(C)c3[nH]c4cc(CCC(=O)N(C)C)ccc4c3CCN2C1=O	Nrf2 block 15µM (no result: miR-21 FLuc)
CC(C)N(C(=O)[C@H]1CC(CC(=O)NCC23CC4CC(CC(C4)C2)C3)C(=O)N2CCc3c([nH]c4ccccc34)[C@]12C)C(C)C (stereo partly specified)	Nrf2 block 26µM, A549 tox inconclusive (no result: miR-21 FLuc)
COCCCNC(=O)C[C@H]1C[C@H](C(=O)N2CCCCC2)[C@@]2(CCc3ccccc3)c3[nH]c4cc(-c5ccco5)ccc4c3CCN2C1=O	Nrf2 block 23µM (no result: miR-21 FLuc)
CCN(CC)C(=O)[C@H]1C[C@H](CC(=O)NCc2cccc(C(F)(F)F)c2)C(=O)N2CCc3c([nH]c4cc(-c5ccco5)ccc34)[C@]12C	Nrf2 block 18µM, A549 tox inconclusive, B2AR arrestin inconclusive (no result: miR-21 FLuc)
CCN(CC)C(=O)[C@H]1C[C@H](CC(=O)NCc2ccco2)C(=O)N2CCc3c([nH]c4cc(-c5ccco5)ccc34)[C@]12C	Nrf2 block inconclusive (no result: miR-21 FLuc)
COc1ccc(-c2nc(Cn3c(SCc4cccc(C(F)(F)F)c4)nc4cccnc43)c(C)o2)cc1OC	Nrf2 block 23µM (no result: B2AR arrestin)
O=C(Nc1ccc(F)cc1)N1CCN(c2nc3ccccc3s2)CC1	Nrf2 block 21µM
O=C(c1ccc2ncsc2c1)N1CCN(c2nc3ccccc3s2)CC1	Nrf2 block 18µM
O=C(Nc1ccc(F)cc1)N1CCCN(c2nccc(C(F)(F)F)n2)CC1	Nrf2 block 12µM, A549 tox inconclusive
O=C(Nc1ccccc1)N1CCN(c2nc3ccccc3s2)CC1	Nrf2 block inconclusive (no result: A549 tox)
CCn1c(/C(C#N)=C/c2ccccc2Cl)nc2ccccc21	Nrf2 activator inconclusive (no result: Nrf2 block, B2AR arrestin)
Cn1c(/C(C#N)=C/c2ccccc2Br)nc2ccccc21	Nrf2 block inconclusive, Nrf2 activator 8.9µM, A549 tox inconclusive (no result: B2AR arrestin)
O=C(CCl)N1N=C(c2ccco2)CC1c1ccco1 (stereo unspecified)	Nrf2 activator 16µM, miR-21 FLuc inconclusive
O=C(CCl)N1N=C(c2cccs2)CC1c1ccco1 (stereo unspecified)	Nrf2 block inconclusive, miR-21 FLuc inconclusive
O=C(OCC(=O)N1N=C(c2ccc(Cl)cc2)CC1c1ccco1)c1cccnc1 (stereo unspecified)	Nrf2 block inconclusive, Nrf2 activator 20µM (no result: miR-21 FLuc)
COCC(=O)OCC(=O)N1N=C(c2ccc(Cl)cc2)CC1c1ccco1 (stereo unspecified)	none
CCOc1ccc(Nc2sc(C(=O)c3ccc4c(c3)OCO4)c(N)c2S(=O)(=O)c2ccc(C)cc2)cc1	none (no result: Nrf2 block, B2AR arrestin)
CC(C)CCNC(=S)Nc1ccc([N+](=O)[O-])cc1	Nrf2 block inconclusive, A549 tox inconclusive
CC(C)OC(=O)c1cc(NC(=S)Nc2ccc([N+](=O)[O-])cc2)cc(C(=O)OC(C)C)c1	Nrf2 block 16µM, A549 tox inconclusive
CCCCNC(=S)Nc1ccc([N+](=O)[O-])cc1	Nrf2 block 18µM, A549 tox inconclusive
COc1cc(OC)c2c(c1C(CCN1CCCC(C)C1)c1ccc(N(C)C)cc1)OC(=O)CC2c1ccc(N(C)C)cc1 (stereo unspecified)	none (no result: Nrf2 activator, miR-21 FLuc, B2AR arrestin)
Cc1ccc(NC(=O)CN2CCc3cc4c(cc3C2)OCCCO4)cc1	none
Cc1cc(C)cc(NC(=O)CN2CCc3cc4c(cc3C2C)OCCCO4)c1 (stereo unspecified)	Nrf2 block 26µM
Cc1cccc(NC(=O)CN2CCc3cc4c(cc3C2C)OCCCO4)c1 (stereo unspecified)	Nrf2 block 23µM
Cc1ccc(N2CCN(C(=O)NCc3noc4ccccc34)CC2C)cc1 (stereo unspecified)	none (no result: B2AR arrestin)
O=C(c1ccc(Cn2cc(Cl)c([N+](=O)[O-])n2)cc1)N1CCN(Cc2ccccc2)CC1	Nrf2 block 21µM
O=C1NC2c3c(I)sc(I)c3C(=O)C2O1 (stereo unspecified)	Nrf2 block inconclusive, Nrf2 activator 11µM (no result: miR-21 FLuc, B2AR arrestin)
O=C1NC2c3c(Cl)sc(Cl)c3C(=O)C2O1 (stereo unspecified)	Nrf2 activator 16µM (no result: miR-21 FLuc, B2AR arrestin)
N#CCCN(C(=O)CSc1nc2nc(-c3cccs3)cc(C(F)(F)F)c2c(=O)[nH]1)c1ccccc1	Nrf2 block 21µM
O=C(Nc1ccccc1C(=O)Nc1nnc(C(F)(F)F)s1)c1ccccc1Cl	Nrf2 block 6.5µM, miR-21 FLuc inconclusive, A549 tox 16µM
CC(NC(=O)Nc1nnc(C(F)(F)F)s1)(C(F)(F)F)C(F)(F)F	Nrf2 block 5.2µM, A549 tox 16µM
Cc1cc(C(=O)Nc2nnc(C(F)(F)F)s2)cs1	Nrf2 activator 8.9µM
CCCN1CNc2c(c(=O)[nH]c(=S)n2CCc2cccc(C)c2)C1	none (no result: Nrf2 activator, miR-21 FLuc, B2AR arrestin)
Cc1cc(-c2ccc(S(=O)(=O)Nc3cc(Cl)ccc3C)s2)on1	none (no result: B2AR arrestin)
O=C(O)Cc1cc(F)c(S(=O)(=O)N2CCN(S(=O)(=O)c3ccc4c(c3)OCCO4)CC2)cc1F	none (no result: Nrf2 activator, miR-21 FLuc, B2AR arrestin)
N#CN1CCC(NC(=O)c2cccc(C(F)(F)F)c2)CC1	none (no result: Nrf2 activator, miR-21 FLuc, B2AR arrestin)
CCOc1ccc(-c2nn3c(-c4cc(-c5ccccc5)n[nH]4)nnc3s2)cc1	none (no result: Nrf2 activator, miR-21 FLuc, B2AR arrestin)
COc1ccc(-c2nn3c(-c4cc(-c5ccccc5)n[nH]4)nnc3s2)cc1	Nrf2 block 23µM (no result: Nrf2 activator, miR-21 FLuc, B2AR arrestin)
COc1ccc(C2Nc3ccccc3C(=O)N2Cc2ccc(C(C)(C)C)cc2)cc1COc1ccc(NC(C)=O)cc1 (stereo unspecified)	Nrf2 block 18µM (no result: Nrf2 activator, miR-21 FLuc, B2AR arrestin)
COc1ccc(C2Nc3ccccc3C(=O)N2Cc2ccc(C(F)(F)F)cc2)cc1COc1ccc(NC(C)=O)cc1 (stereo unspecified)	Nrf2 block inconclusive (no result: Nrf2 activator, miR-21 FLuc, B2AR arrestin)
O=C(Cc1ccc(-c2ccccc2)cc1)NCCS(=O)(=O)N1CCN(c2ccccc2F)CC1	none (no result: Nrf2 block, B2AR arrestin)
Cc1ccc(C(=O)NC(=C(Cl)Cl)S(=O)(=O)c2ccc(C)cc2)cc1	Nrf2 activator 11µM

Screening results as filed in PubChem.
